Results published in paper PMC8942502 (Journal of Enzyme Inhibition and Medicinal Chemistry, 2022).

Chains of the proteins cited; added tags and fusions are not shown.
UniProt P21397, whole entry: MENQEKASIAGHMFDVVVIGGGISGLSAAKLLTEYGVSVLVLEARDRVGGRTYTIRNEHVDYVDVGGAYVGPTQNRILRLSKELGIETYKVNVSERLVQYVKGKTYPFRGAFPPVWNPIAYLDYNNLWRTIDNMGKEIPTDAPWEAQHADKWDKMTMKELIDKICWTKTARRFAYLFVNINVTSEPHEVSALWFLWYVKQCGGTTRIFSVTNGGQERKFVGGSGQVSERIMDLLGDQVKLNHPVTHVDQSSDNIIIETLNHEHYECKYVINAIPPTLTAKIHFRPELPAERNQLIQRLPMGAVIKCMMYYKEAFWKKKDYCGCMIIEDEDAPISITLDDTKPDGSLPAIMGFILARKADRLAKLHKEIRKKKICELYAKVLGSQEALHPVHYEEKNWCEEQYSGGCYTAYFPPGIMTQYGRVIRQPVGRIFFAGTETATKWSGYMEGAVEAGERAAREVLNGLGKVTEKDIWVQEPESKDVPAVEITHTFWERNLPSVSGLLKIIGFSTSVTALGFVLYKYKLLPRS

Key:
[1] = biological target: T1, hMAO-A (Homo sapiens, UniProt P21397); experiment: Anti-MAO assay (Amplex Red, p-tyramine); format: biochemical
T1 construct: purchased Sigma-Aldrich

[2] = tested on: LSD1-CoREST complex; experiment: LSD1-CoREST inhibition assay (Amplex UltraRed/HRP, H3K4 peptide)

Cl.NC1CC1c1ccc(NC(=O)c2cccc(-c3ccsc3)c2)cc1 (stereo not shown) [5b, N-(4-(2-Aminocyclopropyl)phenyl)-3-(thiophen-3-yl)benzamide hydrochloride]
fold more potent against MAO-A than the corresponding para analog ([1]; 5b vs 5a): 1.5 fold | MAO Selectivity Index ([1]; IC50 MAO-B/IC50 MAO-A): 29.3 | LSD1 selectivity vs MAO-A ([2]; IC50 MAO-A/IC50 LSD1): 5.6 | LSD1 selectivity vs MAO-B ([2]; IC50 MAO-B/IC50 LSD1): 164.0
